From patent US8900549B2, “Compositions and methods for delivering a substance to a biological target” (The General Hospital Corporation, priority 2008, dated 2014)

System: EGFR on A549 cells
Assay: Pretargeted live cell labeling with trans-cyclooctene cetuximab and tetrazine-VT680, confocal microscopy
Format: cell-based, human
Conditions: unlabeled cetuximab and tetrazine-VT680, or trans-cyclooctene-cetuximab and unlabeled VT680
Method: Cetuximab (ImClone 2 mg/mL) was purchased and the solvent exchanged for 0.1M NaHCO3 buffered at pH 8.5 with a final concentration of 7 mg/mL. To 200 uL of this stock solution was added 10 uL of DMF. (E)-cyclooct-4-enyl 2,5-dioxopyrrolidin-1-yl carbonate was dissolved in anhydrous DMF to make a 40 mM stock solution. For conjugation, the appropriate excess of amine reactive trans-cyclooctene in DMF was aliquoted into the antibody solution, vortexed, and reacted overnight at 4° C. In the experiments reported, the final trans-cycloctene loadings of 1, 3, 5, and 6 correspond to using 2, 10, 30, and 100 equivalents of succinimidyl carbonate with respect to antibody. […]
A solution of antibody (1 mg/mL) in 0.1M NaHCO3 (pH 8.5) was incubated with 2 equivalents of fluorescent succinimidyl ester (VT680, AF555, or Dylight 488) for 2 hours. […] The number of fluorochromes per antibody was determined by spectrophotometric analysis and determined to be approximately 1 per antibody for all dye succinimidyl esters used.
The human lung adenocarcinoma epithelial cell line A549 was selected for all experiments due to its mid-level over-expression of EGFR. […] This protocol yielded an infection rate in excess of 80% (determined by visual assessment using fluorescence microscopy). […]
Direct labeling of the antibodies with AF555 was monitored in the red channel. […]

## trans-cyclooctene-cetuximab: anti-EGFR antibody (cetuximab) labeled with trans-cyclooctene succinimidyl carbonate; loadings of 1, 3, 5 and 6 per antibody
  NIR fluorescence in control experiments: no NIR fluorescence
